Results: patent US20170182020A1

Settings: remifentanil injection formulations containing these colorants

Substance	Effect of colorant on survival rate of the remifentanil in stability test
riboflavin phosphate ester sodium	greatly lowered the survival rate of the remifentanil
uranine	greatly lowered the survival rate of the remifentanil
